These results are taken from ChEMBL document CHEMBL1132204, “Design and synthesis of phosphinamide-based hydroxamic acids as inhibitors of matrix metalloproteinases” (J Med Chem, 1999).

Sequences of proteins named here, by UniProt entry; tags and fusion partners are left off. A change or cut given only in a name is not applied to a line headed by its entry.
UniProt P22894: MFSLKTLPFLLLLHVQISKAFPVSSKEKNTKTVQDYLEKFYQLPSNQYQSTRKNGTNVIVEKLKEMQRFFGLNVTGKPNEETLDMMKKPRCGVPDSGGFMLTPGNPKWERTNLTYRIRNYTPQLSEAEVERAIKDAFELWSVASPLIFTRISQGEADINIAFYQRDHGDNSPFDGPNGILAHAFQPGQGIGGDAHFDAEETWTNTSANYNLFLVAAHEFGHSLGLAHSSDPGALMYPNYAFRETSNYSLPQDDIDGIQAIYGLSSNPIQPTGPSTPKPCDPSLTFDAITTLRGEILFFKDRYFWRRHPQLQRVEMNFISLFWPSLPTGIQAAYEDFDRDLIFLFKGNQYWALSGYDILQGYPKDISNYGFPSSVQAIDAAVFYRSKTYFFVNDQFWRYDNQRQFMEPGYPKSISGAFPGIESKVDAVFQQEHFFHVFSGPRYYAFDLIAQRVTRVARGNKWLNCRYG

The target of the experiment is Neutrophil collagenase (Homo sapiens, UniProt P22894). As to the kind of experiment: Inhibition of human Matrix metalloprotease-8.

Molecule `COc1ccc(S(=O)(=O)N(Cc2cccnc2)[C@@H](C(=O)NO)C(C)C)cc1` [CGS-27023A] came in with an IC50 of 4.4 nM.
